Measured values taken from article PMC5578695.

The chains behind the UniProt entries cited, without tags or fusion partners. Where a name states a change or a piece, a line headed by the entry shows the natural chain unless it says otherwise.
UniProt P38920: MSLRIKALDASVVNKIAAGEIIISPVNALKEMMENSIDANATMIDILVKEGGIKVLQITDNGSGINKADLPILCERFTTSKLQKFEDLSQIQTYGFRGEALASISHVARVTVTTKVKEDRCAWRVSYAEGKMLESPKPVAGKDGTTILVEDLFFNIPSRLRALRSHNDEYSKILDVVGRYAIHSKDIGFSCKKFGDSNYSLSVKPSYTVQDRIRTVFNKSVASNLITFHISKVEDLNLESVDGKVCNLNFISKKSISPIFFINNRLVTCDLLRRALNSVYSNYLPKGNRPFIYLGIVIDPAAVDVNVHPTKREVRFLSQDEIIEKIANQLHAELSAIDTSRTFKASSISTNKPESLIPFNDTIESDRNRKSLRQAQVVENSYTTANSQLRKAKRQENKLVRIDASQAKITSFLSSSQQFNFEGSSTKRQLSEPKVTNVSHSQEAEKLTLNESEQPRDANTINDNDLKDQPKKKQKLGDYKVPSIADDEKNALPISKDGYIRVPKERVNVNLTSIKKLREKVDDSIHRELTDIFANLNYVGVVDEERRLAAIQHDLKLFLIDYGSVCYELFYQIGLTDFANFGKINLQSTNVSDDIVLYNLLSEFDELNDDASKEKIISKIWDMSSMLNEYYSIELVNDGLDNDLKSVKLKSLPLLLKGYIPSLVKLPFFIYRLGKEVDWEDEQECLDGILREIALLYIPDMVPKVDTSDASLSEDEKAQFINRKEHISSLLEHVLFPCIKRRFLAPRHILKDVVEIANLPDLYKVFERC

Biological target: lexA-Mlh1 (S. cerevisiae) (UniProt P38920)
Assay: two-hybrid; yeast strain L40; lexA-Mlh1 and Gal4 activation domain-Mlh3 (amino acids 481-715) or mutant derivatives; LACZ reporter measured by the ONPG assay for β-galactosidase activity (Miller units); at least three independent assays

| Substance | β-gal units in the two-hybrid assay | Miller units of β-galactosidase activity in the two-hybrid assay (Miller units of β-galactosidase activity) |
| --- | --- | --- |
| Gal4-Mlh3 (amino acids 481-715) (from UniProt Q12083 481-715) (domain or fragment) | 2.6 β-gal units | – |
| Gal4-mlh3-45 (amino acids 481-715) (from UniProt Q12083 481-715) (domain or fragment) | 3.3 β-gal units | – |
| Gal4-mlh3-60 (amino acids 481-715 with the last 11 residues of Pms1) (from UniProt Q12083 481-715) (domain or fragment) | – | 14.2 |
